The list shows a part of the results, in another mix than the full data. Activity calls are given as the source filed them.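 The calls were made as follows: active = inhibition at or above 40%; inactive = inhibition below 40%.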

The experiment addresses Prothrombin (Homo sapiens) (UniProt P00734). In words: human alpha-thrombin inhibitors, primary screen, counter-screen for coagulation protease inhibitor project, biochemical, 1536-well, fluorogenic AMC substrate (AID 1046).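 Also: 0% = enzyme with no compound and 100% = wells without enzyme.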 The settings on record: Boc-VPR-AMC fluorogenic substrate cleavage, at 5 µM, hits give high values. (In general: Counterscreens check selectivity or assay interference.)
As usually defined, the inhibition is the relative decrease from the control value, in per cent. Regarding `CCOc1ccc(C)cc1CN(CCCl)CCCl`, the inhibition is inactive: -1.06%. As for `COc1ccc(NC2CCN(CCc3ccccc3)CC2)c(OC)c1`, the figure is inactive: -4.16%; as for `Cc1ccc(OCC(C)C)c(CN(CCCl)CCCl)c1`, inactive: 1.71%; as for `COc1ccc(C(=O)NCC2(N3CCCCC3)CCCCC2)c(OC)c1OC`, inactive: -2.21%. For the molecule `O=C(NCC1(N2CCOCC2)CCCCC1)c1cc2ccccc2o1`, the inhibition is inactive: -2.26%. As for `O=C(OC1CN2CCC1CC2)C1c2ccccc2Oc2ccccc21` (stereo not drawn), the figure is inactive: -0.51%. For `N#CC1(Nc2ccccc2)CCN(Cc2ccccc2)CC1`, the inhibition was inactive: 4.72%. Turning to `CCOC(=O)N1CCC(Nc2ccc(OC)cc2)CC1`, the inhibition is inactive: -3.41%. As for `CN(C)c1cccc(C(=O)NCC2(N3CCCCC3)CCCCC2)c1`, the figure is inactive: -8.36%; as for `COc1ccc(CN(CCCl)CCCl)cc1Cl`, inactive: -2.64%; as for `N#CC1(Nc2ccccc2)CCN(CCc2ccccc2)CC1`, inactive: 3.62%. Consider `O=C(NCC1(N2CCCCC2)CCCCC1)c1cccc([N+](=O)[O-])c1`, for which the inhibition is inactive: 3.87%. With `O=C(NCC1(N2CCOCC2)CCCCC1)c1cc(=O)[nH]c2ccccc12`, the inhibition is inactive: -5.84%. Turning to `COc1ccc(NC2CCN(C(=O)OC(C)(C)C)CC2)cc1`, the inhibition was inactive: -9.8%. As to `CN1CCN(CCOC(=O)C(O)(c2ccccc2)c2ccccc2)CC1`, the inhibition was inactive: 3.8%. For `N#Cc1ccc(C(=O)NCC2(N3CCCCC3)CCCCC2)cc1`, the inhibition was inactive: -4.28%.

Regarding `c1ccc(CN2CCC(Nc3ccccc3)CC2)cc1`, the inhibition is inactive: -2.64%. As for `COc1ccc(C(=O)NCC2(N3CCOCC3)CCCCC2)cc1OC`, the figure is inactive: -3.15%. For the molecule `N/C(=N\O)c1c(N)no[n+]1[O-]`, the inhibition is inactive: -5.32%. With `O=C(OC1CN2CCC1CC2)C1c2ccccc2C=Cc2ccccc21` (stereo not drawn), the inhibition is inactive: -4.52%. In the case of `CCOc1ncccc1C(=O)NCC1(N2CCOCC2)CCCCC1`, the inhibition was inactive: -3.04%. As for `CC(C)(C)OC(=O)N1CCC(Nc2ccccc2)CC1`, the inhibition is inactive: -14.5%.

Turning to `COc1cc(OC)cc(C(=O)NCC2(N3CCOCC3)CCCCC2)c1`, the inhibition was inactive: -12.3%.

On to `CCC(CO)(C(=O)OC1CN2CCC1CC2)c1ccccc1` (stereo not drawn), for which the inhibition is inactive: 3.8%.

Regarding `CCCOc1ccc(C)cc1CN(CCCl)CCCl`, the inhibition was inactive: -4.85%. With `Fc1ccccc1NC1CCN(Cc2ccccc2)CC1` the figure was inactive: -2.57%. As for `CCN1CCC(Nc2cccc(F)c2)CC1`, the inhibition is inactive: 0.39%.

Take `CN(C)c1ccc(C(=O)NCC2(N3CCCCC3)CCCCC2)cc1`: the inhibition was inactive: -12%.

These data come from PubChem BioAssay AID1046 (PCMD, 2008).
